By Kd is commonly meant a measure of binding affinity in units of concentration. Read a high Kd as weaker binding.

For this test, the target named is T1, ChdC (SaChdC; coproheme decarboxylase) (Staphylococcus aureus, UniProt A6QEP0).
T1 sequence (A6QEP0 1-250): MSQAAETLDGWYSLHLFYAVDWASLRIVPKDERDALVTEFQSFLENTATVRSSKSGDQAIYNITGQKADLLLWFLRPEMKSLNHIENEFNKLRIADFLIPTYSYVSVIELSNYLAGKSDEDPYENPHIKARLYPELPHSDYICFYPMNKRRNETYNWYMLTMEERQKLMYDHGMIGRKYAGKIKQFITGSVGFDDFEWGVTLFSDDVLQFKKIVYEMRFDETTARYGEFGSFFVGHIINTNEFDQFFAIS
The following applies: 50 mM Tris pH 8, 150 mM NaCl, 25 °C; Langmuir-Hill fit.

On to coproheme, for which binding was characterised by a dissociation constant (Kd) of 500 ± 30 nM.

For the origin of these results see publication PMC7160669 (Biochemistry, 2019).
